Measured values as given in patent US20220372008A1, “LUCIFERIN DERIVATIVES AND A METHOD FOR SYNTHESIS THEREOF” (VIDYASIRIMEDHI INSTITUTE OF SCIENCE AND TECHNOLOGY, priority 2019, published 2022).

The chains behind the UniProt entries cited, without tags or fusion partners.
UniProt P08659, whole entry: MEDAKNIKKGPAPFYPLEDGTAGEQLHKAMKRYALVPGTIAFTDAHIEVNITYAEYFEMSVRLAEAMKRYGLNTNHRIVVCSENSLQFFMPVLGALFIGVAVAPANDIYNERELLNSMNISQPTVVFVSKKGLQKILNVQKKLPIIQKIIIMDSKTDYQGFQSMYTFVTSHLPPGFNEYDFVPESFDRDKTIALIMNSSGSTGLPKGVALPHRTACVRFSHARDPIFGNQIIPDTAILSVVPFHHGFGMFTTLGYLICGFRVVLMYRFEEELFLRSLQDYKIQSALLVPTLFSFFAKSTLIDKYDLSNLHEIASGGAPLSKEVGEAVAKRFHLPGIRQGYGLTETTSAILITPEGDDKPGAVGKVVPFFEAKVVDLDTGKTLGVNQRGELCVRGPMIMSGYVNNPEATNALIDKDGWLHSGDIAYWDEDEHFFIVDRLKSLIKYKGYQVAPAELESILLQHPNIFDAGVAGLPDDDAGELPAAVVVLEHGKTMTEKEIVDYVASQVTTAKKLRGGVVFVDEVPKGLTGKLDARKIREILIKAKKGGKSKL

Biological target: firefly luciferase (Photinus pyralis, UniProt P08659)

- emitting wavelength as substrate for the firefly luciferase (spectrofluorometer under bioluminescent mode): 560 nm
- maximum emission wavelength (substrate for wild-type firefly luciferase, FIG. 5): 560 nm
SMILES: O=C(O)[C@H]1CSC(c2nc3ccc(O)cc3s2)=N1 [standard luciferin, luciferin]
